Test results as given in article PMC12951562, “SH2scan: Mapping SH2 Domain-Ligand Binding Selectivity for Inhibitors and Degraders” (Journal of Medicinal Chemistry, 2026).

Tests used:
[1] = target: T1, SYK(SH2dom1.dom2.) (Homo sapiens, UniProt P43405); assay: biochemical; assay type: binding
T1 construct: the SH2 domains for these targets are expressed in tandem constructs; made in house; host or cells: HEK293 (transient transfection), unpurified extract

[2] = target: T2, CBL (Homo sapiens, UniProt P22681); assay: biochemical; assay type: binding; settings: read-out: percent of DMSO vehicle control
T2 construct: the DNA-tagged SH2 domain concentrations used in this study were <0.1 nM; made in house; host or cells: HEK293 (transient transfection; unpurified extract)
T2 sequence (P22681 249-351 limits assumed): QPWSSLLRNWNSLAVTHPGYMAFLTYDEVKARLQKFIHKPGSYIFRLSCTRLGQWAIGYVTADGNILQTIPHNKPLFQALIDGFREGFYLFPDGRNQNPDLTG

Structure (SMILES)	Kd [1]	remaining activity at 10 µM [2]
CC(=O)N[C@@H](CC(N)=O)C(=O)N[C@@H](CCC(N)=O)C(=O)N[C@@H](CC(C)C)C(=O)N[C@@H](Cc1ccc(OP(=O)(O)O)cc1)C(=O)N[C@@H](CC(N)=O)C(=O)N[C@@H](CCC(=O)O)C(=O)N[C@@H](CC(C)C)C(=O)N[C@@H](CC(N)=O)C(=O)N[C@@H](CC(C)C)C(=O)NCC(=O)N[C@@H](CCCN=C(N)N)C(=O)N[C@@H](CCCN=C(N)N)C(=O)N[C@@H](CCC(=O)O)C(=O)N[C@@H](CCC(=O)O)C(=O)N[C@@H](Cc1ccc(OP(=O)(O)O)cc1)C(=O)N[C@@H](CC(=O)O)C(=O)N[C@H](C(=O)N[C@@H](CC(C)C)C(=O)N[C@@H](CC(=O)O)C(N)=O)C(C)C	7 ± 2.05 nM	
CC(=O)N[C@@H](Cc1ccc(CP(=O)(O)O)cc1)C(=O)NC1(C(=O)N[C@@H](CC(N)=O)C(=O)NCCCc2c(O)ccc3ccccc23)CCCCC1 [CGP78850]		76.7 ± 17.1%
CC[C@H](C)[C@H](NC(=O)[C@H](CCC(=O)O)NC(=O)[C@H](CCC(=O)O)NC(=O)[C@H](Cc1ccc(OP(=O)(O)O)cc1)NC(=O)/C=C/c1ccc(O)c(O)c1)C(=O)N[C@@H](CCC(=O)O)C(=O)O [Caffeic acid-pYEEIE]		32.7 ± 4.1%
O=C(CCl)Nc1cccc(CNC(=O)[C@H](Cc2ccc(OP(=O)(O)O)cc2)NC(=O)Cc2ccc(F)cc2)c1 [MN551]		38.9 ± 1.8%
NC(=O)CC[C@H](NC(=O)[C@@H]1CC[C@@H]2CCN(C(=O)CCCCCC#Cc3cccc4c3CN(C3CCC(=O)NC3=O)C4=O)C[C@H](NC(=O)c3cc4cc(C(F)(F)P(=O)(O)O)ccc4[nH]3)C(=O)N21)C(=O)NC(c1ccccc1)c1ccccc1 (stereo partly drawn) [SD-36]		68.3 ± 19.5%
CC(=O)N1CC[C@H]2CC[C@@H](C(=O)N[C@@H](CCC(N)=O)C(=O)NC(c3ccccc3)c3ccccc3)N2C(=O)[C@@H](NC(=O)c2cc3cc(C(F)(F)P(=O)(O)O)ccc3[nH]2)C1 [SI-109]		101%
C/C(=C\C(=O)N[C@H](C(=O)N1CCC[C@H]1C(=O)N(c1ccccc1)c1ccc(I)cc1)C(C)(C)C)c1ccc(OP(=O)(O)O)cc1 [STAT6-IN-1]		24.3 ± 1%
CC(C)(C)[C@H](NC(=O)/C=C/c1ccc(OP(=O)(O)O)cc1)C(=O)N1CCC[C@H]1C(=O)N(c1ccccc1)c1ccc(I)cc1 [STAT6-IN-3]		73.9 ± 11.4%
O=C(COc1ccc2cc(C(=O)Nc3ccccc3)ccc2c1)NCc1ccc(OP(=O)(O)O)c(OP(=O)(O)O)c1 [Stafib-1]		85.6 ± 14.2%
